Assay results from ChEMBL document CHEMBL1201862, “PubChem BioAssay data set” (2004).
Calls of active or inactive are those of the source.

Amino acid sequences for entries named in this document (tags omitted). A change or cut given only in a name is not applied to a line headed by its entry.
UniProt P41145: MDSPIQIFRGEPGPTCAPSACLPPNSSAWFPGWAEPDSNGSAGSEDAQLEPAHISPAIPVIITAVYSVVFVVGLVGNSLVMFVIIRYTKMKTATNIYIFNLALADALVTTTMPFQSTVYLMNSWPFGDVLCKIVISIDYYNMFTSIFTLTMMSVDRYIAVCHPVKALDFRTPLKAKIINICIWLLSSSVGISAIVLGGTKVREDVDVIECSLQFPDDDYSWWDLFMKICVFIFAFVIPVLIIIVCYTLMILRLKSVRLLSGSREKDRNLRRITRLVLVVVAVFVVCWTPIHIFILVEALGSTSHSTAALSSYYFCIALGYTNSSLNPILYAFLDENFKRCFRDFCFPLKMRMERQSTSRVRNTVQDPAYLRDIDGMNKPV
UniProt P78536: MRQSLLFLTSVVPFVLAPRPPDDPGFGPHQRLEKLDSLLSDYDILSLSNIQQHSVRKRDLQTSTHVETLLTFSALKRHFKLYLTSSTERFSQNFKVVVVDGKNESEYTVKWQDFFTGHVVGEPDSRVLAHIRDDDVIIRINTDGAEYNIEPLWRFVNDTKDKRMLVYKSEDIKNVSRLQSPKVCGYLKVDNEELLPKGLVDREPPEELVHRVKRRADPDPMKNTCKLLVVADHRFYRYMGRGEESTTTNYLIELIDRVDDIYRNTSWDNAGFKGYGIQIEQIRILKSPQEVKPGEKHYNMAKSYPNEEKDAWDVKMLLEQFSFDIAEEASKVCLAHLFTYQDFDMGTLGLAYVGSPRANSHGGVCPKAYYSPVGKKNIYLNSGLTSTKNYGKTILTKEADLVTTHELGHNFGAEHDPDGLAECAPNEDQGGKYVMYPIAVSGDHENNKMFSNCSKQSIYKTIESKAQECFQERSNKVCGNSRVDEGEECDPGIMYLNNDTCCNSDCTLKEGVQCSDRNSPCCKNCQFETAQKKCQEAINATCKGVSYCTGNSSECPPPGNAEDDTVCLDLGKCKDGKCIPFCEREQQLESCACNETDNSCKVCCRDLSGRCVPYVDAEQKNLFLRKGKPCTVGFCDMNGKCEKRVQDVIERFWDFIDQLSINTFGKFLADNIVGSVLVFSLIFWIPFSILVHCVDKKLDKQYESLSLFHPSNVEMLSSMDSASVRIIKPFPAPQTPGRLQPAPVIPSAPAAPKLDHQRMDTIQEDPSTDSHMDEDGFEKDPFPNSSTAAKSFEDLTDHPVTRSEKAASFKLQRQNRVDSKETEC

Experiments:
[1] = molecular target: Kappa-type opioid receptor (Homo sapiens, UniProt P41145); experiment: SAR analysis of Antagonists of the Kappa Opioid Receptor (KOR) using an Image-Based Assay - Set 3. [Related pubchem assays (depositor defined):AID1777, AID1785]; format: functional
[2] = molecular target: T1, Disintegrin and metalloproteinase domain-containing protein 17 (Homo sapiens, UniProt P78536); experiment: exosite inhibitors of ADAM17, dose response, biochemical (AID 743260)
[3] = molecular target: T1, Disintegrin and metalloproteinase domain-containing protein 17; experiment: ADAM17 protease inhibitors, dose response, counter-screen for ADAM10 exosite inhibitor project, biochemical, quenched FRET substrate (AID 743253)

Row | SMILES | IC50 [1] | IC50 [2] | IC50 [3]
1 | Cc1ccc(S(=O)(=O)NCc2ccc(C(=O)NCCN(Cc3ccc(Br)cc3)C(C)C)cc2)cc1 | active: 570 nM |  | 
2 | CNC(=O)[C@@H](NC(=O)[C@H](CC(C)C)[C@H](O)C(=O)NO)C(C)(C)C |  | active: 11.5 nM | active: 25.4 nM
